Earlier results, collected in US5266561A, “Treatment of type 2 diabetes mellitus” (Amylin Pharmaceuticals, Inc., priority 1991, dated 1993).

Tested on: rat islet cells
Conditions: literature statement; cited from earlier work

Q: Which “inhibition of the insulin secretory response of islet B-cells to glucose” value does the source give for “calcitonin gene related peptide (ACDTATCVTHRLAGLLSRSGGVVKNNFVPTNVGSKAF; Calcitonin gene-related peptide 1; UniProt P06881 83-119, looked up) [CGRP, calcitonin gene related peptide, amylin agonist]” here?
A: The value was “potent inhibitor”.
